# Experimental data taken from publication PMC3704644, “UV-Induced Nuclear Import of XPA Is Mediated by Importin-α4 in An ATR-Dependent Manner” (PLoS ONE, 2013).
# B1: Xeroderma pigmentosum Group A (XPA) protein, endogenous (natural protein, human (endogenous in H1299 and A549), UniProt P23025 1-273, looked up)
# chain: MAAADGALPEAAALEQPAELPASVRASIERKRQRALMLRQARLAARPYSATAAAATGGMANVKAAPKIIDTGGGFILEEEEEEEQKIGKVVHQPGPVMEFDYVICEECGKEFMDSYLMNHFDLPTCDNCRDADDKHKLITKTEAKQEYLLKDCDLEKREPPLKFIVKKNPHHSQWGDMKLYLKLQIVKRSLEVWGSQEALEEAKEVRQENREKMKQKKFDKKVKELRRAVRSSVWKRETIVHQHEYGPEENLEDDMYRKTCTMCGHELTYEKM
# notes: XPA (xeroderma pigmentosum group A protein), human, endogenous in H1299 and A549 cells; also called endogenous XPA; cellular XPA; source: endogenous, H1299 or A549 whole cell lysate
# B2: purified recombinant XPA protein (natural protein, human, UniProt P23025 1-273, looked up)
# chain: B1 chain
# notes: XPA (xeroderma pigmentosum group A protein), human; also called purified XPA protein; source: purified recombinant protein
# Columns and labels:
# importin-α4, endogenous = molecular target: T1, importin-α4, endogenous (human (endogenous in H1299, A549, …, UniProt O00505 1-521)); assay: co-IP; endogenous proteins; whole cell lysates of H1299 cells UV-C irradiated (20 J/m^2, 1/2 h recovery), or of A549 cells with control or ATR siRNA, mock or UV; NETN buffer (20 mM Tris-HCl pH 8.0, 100 mM NaCl, 1 mM EDTA, 0.5% NP-40), 4°C overnight; IP with importin-α4 or importin-α7 antibody, protein G-agarose, Western blot of XPA; conditions: partners not purified
# T1 construct: importin-α4 (importin subunit alpha-4), human, endogenous in the cell lines used; detected and precipitated with a Genetex antibody; some sources swap the names α3 and α4 (KPNA4/KPNA3); also called Imp α4; source: endogenous, H1299, A549 or GM04429 (XPA-/-) lysate; also immunoprecipitated from H1299 lysate and washed with high salt (0.6 M NaCl)
# T1 sequence (looked up): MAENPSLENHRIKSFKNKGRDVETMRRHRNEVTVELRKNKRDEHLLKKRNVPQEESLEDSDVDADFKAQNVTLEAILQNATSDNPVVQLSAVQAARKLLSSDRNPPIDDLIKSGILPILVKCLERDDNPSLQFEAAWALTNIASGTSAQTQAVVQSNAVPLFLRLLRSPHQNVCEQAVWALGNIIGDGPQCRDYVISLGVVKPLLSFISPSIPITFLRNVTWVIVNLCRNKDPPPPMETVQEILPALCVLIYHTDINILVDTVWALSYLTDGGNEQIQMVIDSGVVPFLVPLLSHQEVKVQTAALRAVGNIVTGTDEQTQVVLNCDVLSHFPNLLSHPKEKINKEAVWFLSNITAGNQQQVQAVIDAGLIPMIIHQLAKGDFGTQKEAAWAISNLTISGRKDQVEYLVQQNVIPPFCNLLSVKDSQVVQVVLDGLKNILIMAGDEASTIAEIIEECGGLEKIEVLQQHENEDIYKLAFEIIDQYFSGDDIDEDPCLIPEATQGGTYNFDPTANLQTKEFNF
# importin-α7, endogenous = molecular target: T2, importin-α7, endogenous (human (endogenous in H1299, GM04429), UniProt O60684); assay: co-IP; 1.0 µg purified recombinant XPA mixed with 2 mg lysate of mock or UV-irradiated (20 J/m^2, 1/2 h recovery) GM04429 (XPA-/-) cells; IP with antibody to the C-terminal of XPA, 4°C overnight, protein G-agarose, NETN washes; Western blot of importins; conditions: one partner purified
# T2 construct: importin-α7 (importin subunit alpha-7), human, endogenous in the cell lines used; detected and precipitated with a Genetex antibody; source: endogenous, H1299 or GM04429 (XPA-/-) lysate; also immunoprecipitated from H1299 lysate and washed with high salt (0.6 M NaCl)
Binder,"fold increase of the interaction after UV irradiation (against cells without UV) (importin-α4, endogenous) [fold]","binding result (importin-α7, endogenous)"
B1,2.8,
B2,,binds
